Reference: patent US12065416B2, “cGAS antagonist compounds” (IMMUNESENSOR THERAPEUTICS, INC., priority 2016, dated 2024)

Protein sequences, listed by entry. Tags and fused reporters are not part of them. Residues count along the entry.
UniProt Q8N884, 147-522 limits assumed: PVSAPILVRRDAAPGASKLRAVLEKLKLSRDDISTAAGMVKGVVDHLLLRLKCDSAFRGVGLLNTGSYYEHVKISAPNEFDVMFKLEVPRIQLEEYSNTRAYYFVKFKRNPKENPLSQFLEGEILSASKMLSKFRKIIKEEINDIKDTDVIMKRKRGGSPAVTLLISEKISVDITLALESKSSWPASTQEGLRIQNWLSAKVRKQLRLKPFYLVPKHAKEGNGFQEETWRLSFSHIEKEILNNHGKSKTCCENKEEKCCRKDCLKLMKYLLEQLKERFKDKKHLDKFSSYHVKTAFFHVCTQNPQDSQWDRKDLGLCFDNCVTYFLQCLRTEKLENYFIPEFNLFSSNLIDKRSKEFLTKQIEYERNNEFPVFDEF

Biological target: recombinant cGAS (aa147-522) (Homo sapiens, UniProt Q8N884)
Assay: In vitro assay for inhibition of cGAS activity (ATP consumption, Kinase Glo)
Conditions: read-out: Activity (Inhibition of cGAS enzyme activity in vitro, IC50), 37° C. 20 minutes
Experimental: cDNA encoding full-length or amino acids 147-520 of human cGAS is inserted into a modified pET28a vector containing an in-frame His6-SUMO tag. The E. coli strain BL21/pLys harboring the plasmid is induced with 0.5 mM IPTG at 18° C. overnight. His6-SUMO tag was removed by a SUMO proease following purification of the HiS-SUMO-cGAS as described previously (Sun et al, 2013, Science 339, 786).
A40 μL mixture containing 1.5 ng/μL of recombinant cGAS (aa147-522) and serial dilutions of a test compound or DMSO was added to a 96-well plate and incubated at 37° C. for 20 minutes. At the end of reaction, 20 μL of Kinase Glo (Promega) was added and chemiluminescence measured with a luminometer. Inhibitory effect of a compound is evaluated by plotting percentage of ATP consumption against logarithm of compound concentrations. IC50 value was calculated using Graphpad (Sigma).

- IC50: < 500 nM
SMILES: COc1cc(/C=C2\SC(=O)N(C)C2=S)c(Br)cc1O
